# Earlier results, collected in paper PMC4310626 (Biochemistry, 2014).
# Biological target: T1, E. coli NDH-1 wild-type (Escherichia coli, UniProt P0AFD4+P33599)
# T1 sequence (P33599 1-596): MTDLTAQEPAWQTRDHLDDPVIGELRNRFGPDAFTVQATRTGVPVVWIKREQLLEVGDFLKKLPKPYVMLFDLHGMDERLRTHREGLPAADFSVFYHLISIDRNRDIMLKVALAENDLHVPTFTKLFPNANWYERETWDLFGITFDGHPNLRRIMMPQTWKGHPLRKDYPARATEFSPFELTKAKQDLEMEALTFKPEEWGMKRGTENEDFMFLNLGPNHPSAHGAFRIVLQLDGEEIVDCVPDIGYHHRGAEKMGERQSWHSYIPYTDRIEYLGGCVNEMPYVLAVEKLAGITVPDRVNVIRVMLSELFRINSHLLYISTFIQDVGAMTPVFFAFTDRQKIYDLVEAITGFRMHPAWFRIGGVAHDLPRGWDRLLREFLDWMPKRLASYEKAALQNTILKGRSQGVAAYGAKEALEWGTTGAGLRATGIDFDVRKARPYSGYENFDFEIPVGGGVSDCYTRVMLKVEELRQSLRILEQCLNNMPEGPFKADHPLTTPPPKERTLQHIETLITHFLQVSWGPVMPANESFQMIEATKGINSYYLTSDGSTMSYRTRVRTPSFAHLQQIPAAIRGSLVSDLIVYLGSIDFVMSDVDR
# T1 sequence (P0AFD4 1-325): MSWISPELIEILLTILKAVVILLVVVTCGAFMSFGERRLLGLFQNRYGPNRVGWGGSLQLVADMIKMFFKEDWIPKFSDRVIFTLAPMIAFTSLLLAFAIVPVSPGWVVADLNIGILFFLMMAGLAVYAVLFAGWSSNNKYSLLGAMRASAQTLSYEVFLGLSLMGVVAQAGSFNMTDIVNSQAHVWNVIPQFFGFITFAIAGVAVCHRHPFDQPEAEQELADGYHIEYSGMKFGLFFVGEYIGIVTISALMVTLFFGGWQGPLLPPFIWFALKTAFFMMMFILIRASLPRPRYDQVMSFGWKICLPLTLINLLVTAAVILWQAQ
# T1 sequence (P0AFC7 1-220 partner): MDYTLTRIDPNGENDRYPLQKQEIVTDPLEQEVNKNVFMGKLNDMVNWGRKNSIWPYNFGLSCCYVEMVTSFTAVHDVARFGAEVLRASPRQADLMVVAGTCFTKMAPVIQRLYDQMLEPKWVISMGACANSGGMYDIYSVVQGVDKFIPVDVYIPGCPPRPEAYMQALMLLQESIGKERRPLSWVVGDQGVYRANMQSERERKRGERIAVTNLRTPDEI
# Conditions: read-out: IC50 value, ref [16],[55]; cited from earlier work
substance,measurement,value
asimicin,IC50,2 to 10 nM
